These results are taken from PMC3501270 (Bioorganic & medicinal chemistry, 2012).

Sequences of proteins named here, by UniProt entry; tags and fusion partners are left off. Residues count along the entry.
UniProt Q99835, 28-787 D473H: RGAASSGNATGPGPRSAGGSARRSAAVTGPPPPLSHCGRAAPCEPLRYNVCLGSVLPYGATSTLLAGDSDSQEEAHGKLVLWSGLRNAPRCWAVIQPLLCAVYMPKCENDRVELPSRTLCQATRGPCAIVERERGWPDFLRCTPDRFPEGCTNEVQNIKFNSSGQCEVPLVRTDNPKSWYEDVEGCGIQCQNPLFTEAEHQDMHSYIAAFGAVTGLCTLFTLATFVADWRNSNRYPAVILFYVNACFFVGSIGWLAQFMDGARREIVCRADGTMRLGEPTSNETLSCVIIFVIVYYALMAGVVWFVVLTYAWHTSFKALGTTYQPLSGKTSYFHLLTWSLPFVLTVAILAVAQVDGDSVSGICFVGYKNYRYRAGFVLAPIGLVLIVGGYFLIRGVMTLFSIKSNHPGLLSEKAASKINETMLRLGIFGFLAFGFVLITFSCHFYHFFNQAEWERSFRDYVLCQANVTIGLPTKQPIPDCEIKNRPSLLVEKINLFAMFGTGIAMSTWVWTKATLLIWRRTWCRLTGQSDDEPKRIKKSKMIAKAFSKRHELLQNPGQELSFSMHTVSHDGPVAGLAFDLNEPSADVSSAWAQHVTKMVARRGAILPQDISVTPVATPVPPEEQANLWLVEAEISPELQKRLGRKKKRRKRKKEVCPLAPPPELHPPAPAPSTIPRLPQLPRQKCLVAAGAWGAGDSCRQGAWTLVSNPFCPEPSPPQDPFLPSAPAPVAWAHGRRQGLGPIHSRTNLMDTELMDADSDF

This test addresses mutant SmoD473H receptor (Homo sapiens, UniProt Q99835, D473H). Briefly: [3H]-cyclopamine saturation binding to Smo-D473H in U2OS cells. The following applies: read-out: Kd for mutant SmoD473H receptor, U2OS cells overexpressing Smo-D473H.

With [^3H]-cyclopamine [^3[H]-cyclopamine], the Kd (commonly a measure of binding affinity in units of concentration) amounted to 116 ± 21 nM.
